# AlphaSeq binding of Ab-14 heavy chain variants to a spike HR2 peptide

Antigen: PDVDLGDISGINAS, a 14-residue peptide of the SARS-CoV-2 spike HR2 region.

Ab-14 is the parent antibody, in scFv form: VH, then the linker GGGGSGGGGSGGGGS, then VL. The light chain is unchanged in all variants.
VH: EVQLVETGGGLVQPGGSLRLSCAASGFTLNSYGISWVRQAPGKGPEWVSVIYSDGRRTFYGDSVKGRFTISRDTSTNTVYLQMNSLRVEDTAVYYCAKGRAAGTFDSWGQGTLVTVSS
VL: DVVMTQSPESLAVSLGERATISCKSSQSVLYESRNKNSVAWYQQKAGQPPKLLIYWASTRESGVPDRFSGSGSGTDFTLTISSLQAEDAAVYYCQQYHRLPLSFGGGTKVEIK

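The starting antibody came from a phage panning campaign against this peptide. AAYL49 was designed without a model: most single CDR substitutions and a random sample of double and triple ones. The scFvs were displayed on barcoded MATa yeast, the peptide on MATalpha yeast. After mating in shaken culture at 30 °C for 16 h, diploids were selected and their barcode pairs sequenced. Each replicate has its own calibration line, from reference interactions of the BCL2 family. There are three technical replicates.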

Substitutions are numbered in sequence along the VH above, starting at 1 (not Kabat).
Numbers give log10(Kd / nM), so 0 is 1 nM and 3 is 1 µM. Smaller is tighter.
"nd" means that the variant was in the library but no mating with the target was seen in that replicate; the authors take this as a sign of poor binding, and no number exists.
Empty control strains, which show no peptide, gave a signal in 15% of pairings with library AAYL49; the median was 4.06 and 95% of these signals were weaker than 2.83. No background was subtracted. Also given: how often the same scFv was detected with the empty control strains, with their mean in brackets.

| # | changes | log10 Kd (nM) by replicate | empty controls |
|---|---|---|---|
| 1 | G26C+S35E+T104G | nd 2.83 nd | 2/9 (3.74) |
| 2 | G26D+D54R+T58S | nd nd 4.33 | 5/9 (4.45) |
| 3 | I51Q+V64L | nd nd nd | 0/9 |
| 4 | D54P+G61S | nd nd nd | 2/9 (5.28) |
| 5 | Y32H+G55K+T58H | nd 3.65 nd | 1/9 (5.47) |
| 6 | G26C+L29A+A101P | nd nd 4.14 | 1/9 (3.44) |
| 7 | S53Y+T58D+D106A | 4.58 3.40 nd | 4/9 (4.19) |
| 8 | F59Q+G61I+F105K | nd nd 4.44 | 0/9 |
| 9 | S35Y+F59C+D62F | 1.18 1.60 1.44 | 0/9 |
| 10 | G26V+I34L+A101C | 4.23 4.14 nd | 2/9 (4.17) |
| 11 | S31K+S35V+R57W | nd nd nd | 1/9 (2.95) |
| 12 | G33Y+V50E+S107F | nd nd nd | 0/9 |
| 13 | Y32E+S35A+D62R | 4.93 3.19 nd | 1/9 (2.92) |
| 14 | G26R+T104M+S107A | nd nd nd | 2/9 (2.68) |
| 15 | L29Q+G33M+G61S | nd nd nd | 3/9 (3.69) |
| 16 | G99C+R100S | 5.58 nd nd | 0/9 |
| 17 | G26Q+S31G+R57Q | 4.51 nd 3.76 | 0/9 |
| 18 | Y60G+V64M+A102H | nd nd nd | 3/9 (4.22) |
| 19 | G33P+V64P+K65I | 2.98 nd nd | 1/9 (4.61) |
| 20 | I34P+R57V+D106P | nd nd nd | 1/9 (3.87) |
| 21 | S35E+D106I | nd nd nd | 0/9 |
| 22 | Y60F+A101E+D106E | 1.95 1.73 2.23 | 1/9 (3.47) |
| 23 | T28G+R56Y+Y60P | nd nd nd | 0/9 |
| 24 | S35Y+S53M+D62M | nd nd nd | 1/9 (3.09) |
| 25 | L29A+R57T+K65T | nd 3.79 3.55 | 4/9 (4.19) |
| 26 | T28E+L29F+V64Y | nd nd nd | 1/9 (3.54) |
| 27 | S53R+D54H+T58D | nd nd nd | 1/9 (3.90) |
| 28 | Y32V+F59V+D106M | 4.88 nd nd | 1/9 (4.70) |
| 29 | D106G+S107N | nd 3.37 nd | 2/9 (4.42) |
| 30 | Y32H+S63V+R100Q | nd nd nd | 0/9 |
| 31 | N30I+G33V+F59W | nd nd nd | 0/9 |
| 32 | G26P+S53K+G61P | nd nd nd | 1/9 (3.62) |
| 33 | I51Y+R57H+S107G | nd nd nd | 0/9 |
| 34 | V50W+G61K+T104K | nd nd nd | 0/9 |
| 35 | T28V+I51R+S63D | nd nd 5.06 | 1/9 (2.73) |
| 36 | I34E+G61Q+A102Y | nd nd nd | 1/9 (5.04) |
| 37 | L29R+G55A+K65Q | nd nd 4.71 | 2/9 (4.05) |
| 38 | G26H+N30C | nd nd 2.90 | 1/9 (2.61) |
| 39 | I51M+G103D | nd nd nd | 0/9 |
| 40 | S53L+Y60W+A101K | nd nd nd | 0/9 |
| 41 | Y32N+T58Y+G103W | 3.94 nd nd | 2/9 (4.99) |
| 42 | G26L+S63H | 2.09 2.07 2.05 | 1/9 (6.01) |

A selection of 5 entries from above:

{"changes": "G26P+S53K+G61P", "log10 Kd (nM) by replicate": "nd nd nd", "empty controls": "1/9 (3.62)"}
{"changes": "G26L+S63H", "log10 Kd (nM) by replicate": "2.09 2.07 2.05", "empty controls": "1/9 (6.01)"}
{"changes": "Y60F+A101E+D106E", "log10 Kd (nM) by replicate": "1.95 1.73 2.23", "empty controls": "1/9 (3.47)"}
{"changes": "S35Y+S53M+D62M", "log10 Kd (nM) by replicate": "nd nd nd", "empty controls": "1/9 (3.09)"}
{"changes": "Y32V+F59V+D106M", "log10 Kd (nM) by replicate": "4.88 nd nd", "empty controls": "1/9 (4.70)"}

Parent in this assay: reference entry 0.65, copy in this library 4.11 (one replicate of three).

Values reported by Engelhart et al. 2022, doi:10.1038/s41597-022-01779-4 (FLAb copy).